The entries are a selection whose mix differs from that of the whole data set. Activity calls are given as the source filed them.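 How the source made its calls: active means inhibition above about 35% when tested at 20 µM (limit read from the data); inactive means the rest.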
Target: Hexokinase HKDC1 (Homo sapiens) (UniProt Q2TB90)
Experiment: HKDC1 hexokinase inhibitors, primary screen, biochemical, fluorescence, uHTS (AID 493160);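 further: plate controls were DMSO wells with enzyme for no effect and DMSO wells lacking enzyme for full effect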
Settings: recombinant HKDC1, G6PDH/diaphorase resazurin coupled fluorescence; at 20 µM; stronger effect = higher value

The chains behind the UniProt entries cited, without tags or fusion partners. Where a name states a change or a piece, a line headed by the entry shows the natural chain unless it says otherwise.
UniProt Q2TB90: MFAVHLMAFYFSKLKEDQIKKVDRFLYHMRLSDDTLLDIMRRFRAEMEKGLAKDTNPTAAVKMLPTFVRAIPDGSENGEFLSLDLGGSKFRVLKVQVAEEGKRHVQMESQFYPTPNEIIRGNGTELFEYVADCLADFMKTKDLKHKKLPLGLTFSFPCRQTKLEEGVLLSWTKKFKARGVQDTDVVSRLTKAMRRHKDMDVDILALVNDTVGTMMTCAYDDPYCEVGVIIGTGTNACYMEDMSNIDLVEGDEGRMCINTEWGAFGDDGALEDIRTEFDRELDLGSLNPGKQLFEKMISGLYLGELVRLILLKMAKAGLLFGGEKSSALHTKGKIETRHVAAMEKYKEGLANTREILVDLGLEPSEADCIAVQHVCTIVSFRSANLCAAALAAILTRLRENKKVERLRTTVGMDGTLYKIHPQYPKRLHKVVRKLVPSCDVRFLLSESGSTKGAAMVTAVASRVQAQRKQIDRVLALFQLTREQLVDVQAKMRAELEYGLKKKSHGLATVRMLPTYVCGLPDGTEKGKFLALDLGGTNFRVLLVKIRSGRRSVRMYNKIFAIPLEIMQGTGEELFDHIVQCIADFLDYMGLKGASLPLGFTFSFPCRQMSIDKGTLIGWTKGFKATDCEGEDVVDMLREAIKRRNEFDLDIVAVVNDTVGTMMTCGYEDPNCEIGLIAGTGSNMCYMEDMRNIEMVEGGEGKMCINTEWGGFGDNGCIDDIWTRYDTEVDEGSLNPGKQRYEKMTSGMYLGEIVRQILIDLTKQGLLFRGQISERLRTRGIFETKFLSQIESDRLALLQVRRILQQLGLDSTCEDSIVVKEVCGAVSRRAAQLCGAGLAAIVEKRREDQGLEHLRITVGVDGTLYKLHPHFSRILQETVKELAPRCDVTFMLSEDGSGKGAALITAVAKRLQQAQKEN

Row | Compound | inhibition
1 | O=C(OC1CN2CCC1CC2)c1ccccc1 (centres undefined) | inactive: 7.77%
2 | CCC(=O)N1C2C3N(C(=O)CC)C1C1N(C(=O)CC)C(C(N1C(=O)CC)N3C(=O)CC)N2C(=O)CC | inactive: 3.49%
3 | COC(=O)c1cc2c(s1)N=C(c1ccccc1)N(C)P2(=O)N1CCOCC1 (centres undefined) | inactive: 0.03%
4 | CC(=O)NC(SC(=S)N(CC(C)C)CC(C)C)C(Cl)(Cl)Cl (centres undefined) | inactive: -15.8%
5 | Cc1ccc(OP(=O)(Nc2ccccn2)Oc2ccc(C)cc2)cc1 | inactive: -7.04%
6 | CC(NC(=O)COC(=O)C(O)(c1ccccc1)c1ccccc1)c1ccccc1 (centres undefined) | inactive: 5.48%
7 | Cc1ccccc1OP(=O)(Nc1ccccn1)Oc1ccccc1C | inactive: -0.09%
8 | O=c1c2cc([N+](=O)[O-])ccc2[nH]c2c([N+](=O)[O-])cc([N+](=O)[O-])cc12 | inactive: 26.6%
9 | CN(C)C(=O)Oc1noc2ccccc12 | inactive: -1.75%
10 | O=P(Nc1ccccn1)(c1ccc(Br)cc1)c1ccc(Br)cc1 | inactive: 7.22%
11 | CN(C)C1(CNC(=O)c2ccc(Cl)c(S(N)(=O)=O)c2)CCCCC1 | inactive: 2.11%
12 | COc1ccc(N)c([N+](=O)[O-])c1[N+](=O)[O-] | inactive: 4.37%
13 | O=P(Nc1nc2ccccc2s1)(c1ccccc1)c1ccccc1 | inactive: -2.77%
14 | C[C@H]1OP(=O)(Oc2ccccc2)[C@H](O)[C@H](O)[C@H]1N=[N+]=[N-] (some centres undefined) | inactive: -0.58%
15 | O=[As](O)(c1ccccc1)c1ccc(O)cc1 | inactive: 20.4%
16 | O=[N+]([O-])c1ccc(O)c(/C=N/Nc2ccc([N+](=O)[O-])cc2[N+](=O)[O-])c1 | inactive: 7.12%
17 | CC(=O)NC(SC(=S)N(C)C)C(Cl)(Cl)Cl (centres undefined) | inactive: 7.5%
18 | O=[N+]([O-])c1ncn(CCn2cnc([N+](=O)[O-])n2)n1 | inactive: 2.59%
19 | O=C(OC1CN2CCC1CC2)c1cccc(Cl)c1 (centres undefined) | inactive: -8.61%
20 | C(Cc1nn[nH]n1)Cc1nn[nH]n1 | inactive: -12.2%
21 | Nc1ccc([As](=O)(O)c2ccc([N+](=O)[O-])cc2)cc1 | inactive: -6.56%
22 | CC(C)C(=O)NC(Sc1ccccc1)C(Cl)(Cl)Cl (centres undefined) | inactive: -6.74%

Row | Compound | inhibition
23 | O=P(Nc1nccs1)(c1ccccc1)c1ccccc1 | inactive: -1.75%
24 | c1nnnn1CCn1cnnn1 | inactive: 3.28%
25 | COc1ccc(C2=NCC(CBr)S2)cc1 (centres undefined) | inactive: 2.61%
26 | Cc1ccc(NP(=O)(Oc2ccccc2)Oc2ccccc2)nc1 | inactive: -3.88%
27 | CCc1nc2c(n1)c1c(non1O)c1c2no[n+]1[O-] | inactive: 19.9%
28 | O=[N+]([O-])c1cc([N+](=O)[O-])c(CCNc2ccccc2)c([N+](=O)[O-])c1 | inactive: 14.1%
29 | O=[N+]([O-])c1cccc2n[nH]nc12 | inactive: -6.98%
30 | CC(=O)N1C2C3N(C(C)=O)C1C1N(C(C)=O)C(C(N1C(C)=O)N3C(C)=O)N2C(C)=O | inactive: -9.6%
31 | CCN(/C(=N/P(=O)(N1CCOCC1)N1CCOCC1)N1CCOCC1)c1ccc(OC)cc1 | inactive: -6.85%
32 | Nc1ccc([As](=O)(O)c2ccc(N)cc2)cc1 | inactive: -2.3%
33 | C[N+]1=C2C=CC=CC=C2SC12C([N+](=O)[O-])=CC([N+](=O)[O-])=C[C-]2[N+](=O)[O-] (centres undefined) | inactive: 20.4%
34 | CC1CCN(C(=O)Oc2c(Cl)cc(Cl)c3cccnc23)CC1 | inactive: -0.26%
35 | CC(C)=N/N=C(\N)N[N+](=O)[O-] | inactive: 8.64%
36 | CN(C)C(=O)OCCc1n(C)cc[n+]1C | inactive: -14.2%
37 | O=P1(N(CCCl)CCCl)OCCCS1 (centres undefined) | inactive: -2.49%
38 | O=C(Nc1cc([As](=O)(O)O)ccc1O)c1ccccc1 | inactive: -3.96%
39 | O=[N+]([O-])c1ncn(CCn2ncnc2[N+](=O)[O-])n1 | inactive: 2.76%
40 | CC(C)(C)C(=O)NC(Sc1ccncn1)C(Cl)(Cl)Cl (centres undefined) | inactive: 1.76%
41 | O=C(O)CNc1ccc([As](=O)(O)O)cc1 | inactive: 9.93%
42 | COC(=O)C1(C)COP(=O)(Nc2ccccc2)OC1 (centres undefined) | inactive: -3.9%
43 | O=[N+]([O-])c1cccc(NC2=NCC(CBr)S2)c1 (centres undefined) | inactive: 3.83%
44 | O=P(Nc1nc2ccc(Cl)cc2s1)(c1ccccc1)c1ccccc1 | inactive: 3.22%

Row | Compound | inhibition
45 | CC(=O)Nc1ccc([As](=O)(O)O)cc1 | inactive: -1.26%
46 | O=C(O)c1ccccc1[As](=O)(O)O | inactive: 8.6%
47 | CCCC1OP(N)(=O)OCC1CC (centres undefined) | inactive: 7.67%
48 | Cc1cc(SC(NC(=O)c2ccc(F)cc2)C(Cl)(Cl)Cl)ncn1 (centres undefined) | inactive: 7.1%
49 | CCOP(=O)(Nc1ccccc1)OCC | inactive: 2.81%
50 | Cc1ccc(NP(=O)(Oc2ccccc2F)Oc2ccccc2F)nc1 | inactive: -6.71%
51 | CN(C(=O)Cc1ccc(Cl)c(Cl)c1)[C@H]1CCCC[C@@H]1N1CCCC1 | inactive: -0.98%
52 | Nc1cccc2ccc([As](=O)(O)O)cc12 | inactive: 17.2%
53 | CCN(N=Nc1nonc1N)c1nonc1N | inactive: -1.53%
54 | CN(C(=O)Cc1ccc(Cl)c(Cl)c1)[C@H]1CCCC[C@H]1N1CCCC1 | inactive: -1.13%
55 | Cc1ccc(N/C(=N/P(=O)(N2CCOCC2)N2CCOCC2)N2CCOCC2)cc1 | inactive: 6.2%
56 | NC(=O)c1cc([N+](=O)[O-])cc([N+](=O)[O-])c1N | inactive: -10.6%
57 | CN1CCCC(OC(=O)C(c2ccccc2)c2ccccc2)C1 (centres undefined) | inactive: 5.7%
58 | Clc1ccc(Cl)c(NC2=NCC(CBr)S2)c1 (centres undefined) | inactive: 2.47%
59 | COc1ccccc1OP(=O)(Nc1ccc(C)cn1)Oc1ccccc1OC | inactive: -7.71%
60 | Cc1ccc(OP(=O)(Nc2nccs2)Oc2ccc(C)cc2)cc1 | inactive: -0.12%
61 | Oc1ccccc1CNc1ccccn1 | inactive: 1.9%
62 | O=C(NC(Sc1ccncn1)C(Cl)(Cl)Cl)c1ccccc1 (centres undefined) | inactive: -11%
63 | Nc1cc(N)c2nonc2c1[N+](=O)[O-] | inactive: 3.73%
64 | CC(C)CC(=O)NC(Sc1ccc(Cl)cc1)C(Cl)(Cl)Cl (centres undefined) | inactive: -1.38%

Reference: PubChem BioAssay AID493160 (Sanford-Burnham Center for Chemical Genomics, 2011)
